{"source": "ChEMBL document CHEMBL1127847", "about": "“Cyclic GMP phosphodiesterase inhibitors. 2. Requirement of 6-substitution of quinazoline derivatives for potent and selective inhibitory activity” (J Med Chem, 1994)", "target": "T1, Phosphodiesterase 3A (Sus scrofa, UniProt Q9XSW7)", "T1 sequence (Q9XSW7 whole entry)": "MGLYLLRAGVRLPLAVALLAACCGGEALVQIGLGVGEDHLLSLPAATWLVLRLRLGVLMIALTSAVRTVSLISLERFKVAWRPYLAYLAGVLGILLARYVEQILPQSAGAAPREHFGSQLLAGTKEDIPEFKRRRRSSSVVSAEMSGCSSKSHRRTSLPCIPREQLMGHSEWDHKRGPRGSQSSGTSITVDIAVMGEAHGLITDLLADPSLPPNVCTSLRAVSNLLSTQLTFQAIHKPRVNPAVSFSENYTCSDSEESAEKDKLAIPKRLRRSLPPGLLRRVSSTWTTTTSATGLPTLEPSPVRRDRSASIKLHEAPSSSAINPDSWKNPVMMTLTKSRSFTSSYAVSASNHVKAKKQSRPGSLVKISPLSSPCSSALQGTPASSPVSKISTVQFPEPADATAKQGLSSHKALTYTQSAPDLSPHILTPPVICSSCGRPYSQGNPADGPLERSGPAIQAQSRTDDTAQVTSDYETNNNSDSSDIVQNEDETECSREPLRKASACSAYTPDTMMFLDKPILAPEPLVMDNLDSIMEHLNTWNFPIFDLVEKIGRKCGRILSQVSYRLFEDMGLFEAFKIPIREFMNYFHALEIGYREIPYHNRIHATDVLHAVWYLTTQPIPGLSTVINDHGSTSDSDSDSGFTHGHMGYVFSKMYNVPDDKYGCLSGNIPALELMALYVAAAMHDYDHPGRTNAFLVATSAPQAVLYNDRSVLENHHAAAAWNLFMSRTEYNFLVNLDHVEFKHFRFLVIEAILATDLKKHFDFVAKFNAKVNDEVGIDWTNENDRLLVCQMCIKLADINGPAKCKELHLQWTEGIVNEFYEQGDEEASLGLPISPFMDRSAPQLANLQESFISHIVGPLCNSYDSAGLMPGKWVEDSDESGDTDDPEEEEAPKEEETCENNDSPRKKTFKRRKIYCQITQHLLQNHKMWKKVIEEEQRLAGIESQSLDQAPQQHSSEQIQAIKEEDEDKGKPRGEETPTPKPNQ", "experiment": "Inhibition of cGMP-inhibited PDE 3 from porcine aorta", "data": [{"smiles": "COc1cc2c(NCc3ccc4c(c3)OCO4)ncnc2c(OC)c1OC", "values": [{"measurement": "IC50", "value": 360, "unit": "nM"}]}]}
